High-throughput results deposited in PubChem BioAssay by National Center for Advancing Translational Sciences (NCATS).
Sampled rows, rich in hits. Any-hit rate of the full collection: about 3.7%.
Nrf2 ARE act = activators of Nrf2 (ARE) signaling; AREc32 ARE-luciferase reporter (MCF7-derived line), luminescence, 24 h; hit rate 0.31% among 410,000; Potency, µM (highest dose often 46.1 µM), for the others: top-dose activation, hits mostly activators; note: potency is the fitted concentration of half-maximal effect; % of control where 0% means no effect; nearly all actives have a fitted effect of over 65% in size
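For detection, Steady-Glo was added and plates sat 30 min at RT; before that, AREc32_Fluc cells grown overnight in OPTI-MEM/5% FBS had been treated with 23 nL compound for 24 hr at 37 deg C.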
miR-21 reporter = raises the signal of a miR-21 reporter | HeLa miR-21 FLuc reporter, luciferase, 48 h | Potency, µM (doses to about 38.3 µM), without a hit: at the top dose reporter change, positive = more light | 340,000 tested, under 10 active | AID 2288; active = well fitted rising curve with a large enough effect; inconclusive = small, poorly fitted or top-dose-only effect; inactive = no such curve, though single readings can be large or run the other way;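 note: % of control where 0% means no effect; miR-21 action dims this reporter so a rising signal means less miR-21 action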
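Luminescence from a firefly luciferase reporter carrying a miR-21 binding site downstream, stably expressed under a CMV promoter in HeLa cells that make miR-21 endogenously, reports miRNA modulation after 48 h compound exposure up to approximately 40uM final.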
A549 tox = counter-screen for Nrf2 inhibitors: cytotoxicity in A549 cells. A549 ARE-Fluc cells, CellTiter-Fluor viability, 18-24 h. Potency, µM (highest dose often 46 µM), for inactives: top-dose activity change, negative = cytotoxicity, most hits filed as inhibitors. hit rate 0.16% among 390,000; note: potency is the fitted concentration of half-maximal effect; % is set by controls: 0 for no effect and ±100 for the full control effect
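A549 ARE_Fluc cells in 5% FBS OPTI-MEM were exposed to compounds in concentration-response for 18-24 h at 37 deg C. Viability was read by CellTiter-Fluor fluorescence (Ex 405/Em 525) after 30 min, before the luciferase read.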
ClpP mod = qHTS Assay for Activators of ClpP | ATP-dependent Clp protease proteolytic subunit (Bacillus subtilis (strain 168)), P80244 | hit rate 1.9% among 340,000 | purified B. subtilis ClpP, FRET peptide cleavage, 20 min | Potency, µM (titrated, usually from 57.5 µM), for inactives: at the highest dose activity change, negative = active; active = well fitted falling curve with a large enough effect; inconclusive = small, poorly fitted or top-dose-only effect; inactive = no such curve, though single readings can be large or run the other way; note: potency is the fitted concentration of half-maximal effect; the source files actives as falling curves though it sought activators and does not explain the sign; nearly all actives have a fitted effect of over 65% in size
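Purified B. subtilis ClpP, 10 microg/mL final in Tris/HCl pH8 with KCl, BSA, glycerol and Tween-20, cleaved an Abz/nitrotyrosine-quenched decapeptide. Fluorescence (ex 320, em 430) was read at 0 and 20 min at room temperature. Delta was normalized to 5.8 microM ADEP and DMSO/no-enzyme controls.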
TCR act = activates T cell receptor signaling. primary human leukocytes, anti-CD3, IL-2 HTRF, 48 h. Potency, µM (doses to about 9.22 µM), for the others: at the top dose activation of IL-2 secretion, actives largely listed as activators. 330,000 tested, under 10 active; note: % of control where 0% means no effect
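Compounds are tested in HTS on primary human leukocytes co-incubated with a-CD3 beads for 48 hr. IL-2 output is measured by time-resolved FRET.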
Nrf2 inh = blocks Nrf2 signaling; Potency, µM (top dose mostly 46 µM), without a hit: at the highest dose activity change, negative = inhibition, actives largely listed as inhibitors; hit rate 2.1% among 360,000; A549 ARE-Fluc reporter, luciferase luminescence, 18-24 h; AID 504444; note: potency is the fitted concentration of half-maximal effect; % is set by controls: 0 for no effect and ±100 for the full control effect; nearly all actives have a fitted effect of over 60% in size
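Quantitative HTS in A549 cells stably bearing an antioxidant response element-firefly luciferase construct. Inhibition of Nrf2-driven transcription was scored by luminescence after 18-24 h of compound exposure at 37 °C.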
The depositor's hits bear a star; [ ] = another dose, or the depositor's remark. Unless noted, calls come from the whole dose curve; as a rule, active = well fitted curve in the direction sought with a large enough effect; inconclusive = small, poorly fitted or top-dose-only effect, or another doubt; inactive = no such curve, though single readings can be large; an effect the other way counts as inactive or inconclusive.

What do the screens show for `Cn1c2ccccc2c2c(C(=O)N3CCC4(CC3)OCCO4)cn(C3CCCCC3)c(=O)c21`?
Nrf2 ARE act: 0.0%; miR-21 reporter: 13.8%; A549 tox: -11.4%; ClpP mod: 17.8µM*; TCR act: -6.0%; Nrf2 inh: -18.7%

How did Cn1cc(C(=O)N2CCC3(CC2)OCCO3)c2c3ccccc3n(C)c2c1=O do in these assays?
Nrf2 ARE act: 0.5%; miR-21 reporter: -7.4%; A549 tox: -0.8%; ClpP mod: 14.1µM*; TCR act: -1.7%; Nrf2 inh: 13.3%

How did CC(C)Cn1cc(C(=O)N2CCC3(CC2)OCCO3)c2c3ccccc3n(C)c2c1=O do in these assays?
Nrf2 ARE act: -0.5%; miR-21 reporter: 5.3%; A549 tox: -6.8%; ClpP mod: 15.8µM*; TCR act: 7.1%; Nrf2 inh: -5.3%

How did COc1ccc(-c2coc3c(C(=O)Nc4cc(OC)c(OC)c(OC)c4)cccc23)c(C)c1 do in these assays?
Nrf2 ARE act: -0.6%; ClpP mod: inconclusive

How did COc1ccccc1CNCC(=O)Nc1cc(S(=O)(=O)N2CCCCC2)ccc1C do in these assays?
Nrf2 ARE act: 0.0%; A549 tox: 1.0%; ClpP mod: 8.91µM*; TCR act: 3.1%; Nrf2 inh: -26.0%

What do the screens show for `Cc1ccc(S(=O)(=O)N2CCCCC2)cc1NC(=O)CN1CC=C(c2ccccc2)CC1`?
Nrf2 ARE act: -0.5%; miR-21 reporter: 19.2%; A549 tox: -13.3%; ClpP mod: -9.8%; TCR act: -0.3%[46.1 µM]; Nrf2 inh: inconclusive

How did CC1=C(C(=O)O)N2C(=O)C(NC(=O)c3nn(C)cc3[N+](=O)[O-])C2SC1 (stereo not given) do in these assays?
Nrf2 ARE act: 1.6%; miR-21 reporter: 0.7%; A549 tox: 9.3%; TCR act: -7.9%; Nrf2 inh: inconclusive

What do the screens show for `COc1ccc(N2CCN(Cc3nc4ccccc4[nH]3)CC2)cc1`?
Nrf2 ARE act: 2.8%; miR-21 reporter: -5.6%; A549 tox: 2.8%; TCR act: -4.3%; Nrf2 inh: 0.5%

Results for CCCc1cc(N2CCN(c3ccc(OC)cc3)CC2)n2cnnc2n1 ?
Nrf2 ARE act: -1.2%; miR-21 reporter: 24.1%; A549 tox: -17.9%; ClpP mod: 0.6%; Nrf2 inh: 11.6µM*

Results for CC(=O)C1=NOC(CNc2ncc(C(F)(F)F)cc2Cl)C1 (stereo not given) ?
Nrf2 ARE act: 0.1%[9.22 µM]; miR-21 reporter: -56.4%; A549 tox: 1.7%; TCR act: 10.3%; Nrf2 inh: 2.2%

Results for S=C(S)N1CCCC1 ?
Nrf2 ARE act: 0.0%; A549 tox: -6.6%; ClpP mod: -0.5%; TCR act: -0.4%; Nrf2 inh: 5.8µM*

What do the screens show for `Cc1cc(C)nc(SCC(=O)NC2=NN=C(c3ccc(Br)cc3)CS2)n1`?
Nrf2 ARE act: 12.7%; miR-21 reporter: inconclusive; A549 tox: inconclusive; ClpP mod: -4.2%; TCR act: -7.5%

How did COc1ccc(C(CC(=O)N2CCC3(CC2)OCCO3)NS(=O)(=O)c2ccc(F)cc2)cc1 (stereo not given) do in these assays?
Nrf2 ARE act: 0.2%; miR-21 reporter: 0.5%; A549 tox: 9.8%; ClpP mod: 22.4µM*; TCR act: -2.3%

How did COc1ccc(CCNC(=O)c2ccc3c(c2)N=C(C)c2cc(C)ccc2S3)cc1OC do in these assays?
Nrf2 ARE act: -1.0%; miR-21 reporter: 19.3%; A549 tox: -10.5%; ClpP mod: -3.7%; Nrf2 inh: 14.6µM*

What do the screens show for `CCc1ccc(CNC(=O)c2ccc3c(c2)N=C(C)c2cc(C)ccc2S3)cc1`?
Nrf2 ARE act: -0.8%; miR-21 reporter: inconclusive; A549 tox: -4.5%; ClpP mod: 2.3%; Nrf2 inh: inconclusive

How did c1ccc(CCN2CCCCC2)cc1 do in these assays?
ClpP mod: 1.2%

What do the screens show for `Cc1ccc(NC(=O)c2cn(CCC#N)nc2-c2ccc3c(c2)OCCO3)c([N+](=O)[O-])c1`?
Nrf2 ARE act: 0.5%; miR-21 reporter: -11.7%; A549 tox: 1.8%; ClpP mod: 28.2µM*; TCR act: 1.9%[46.1 µM]; Nrf2 inh: -11.8%

How did N#CCCn1cc(C(=O)Nc2ccc([N+](=O)[O-])cc2)c(-c2ccc3c(c2)OCCO3)n1 do in these assays?
Nrf2 ARE act: -0.2%; miR-21 reporter: 1.9%; A549 tox: 2.0%; ClpP mod: -9.1%; TCR act: 0.0%[46.1 µM]; Nrf2 inh: -1.5%

How did Nc1ccccc1C(=O)OCC(=O)Nc1ccc(Br)cc1F do in these assays?
Nrf2 ARE act: 4.5%; miR-21 reporter: -47.4%; A549 tox: 4.4%; ClpP mod: 28.2µM*; TCR act: 3.2%

Results for CCOC(=O)CC1c2ccccc2-n2nncc2CN1C (stereo not given) ?
Nrf2 ARE act: -0.4%; A549 tox: 6.6%; ClpP mod: -2.5%; TCR act: 4.7%; Nrf2 inh: 0.5%

What do the screens show for `CCOC(=O)CC1c2ccccc2-n2nncc2CN1Cc1ccc(OC)cc1` (stereo not given)?
Nrf2 ARE act: 0.2%; A549 tox: -10.9%; ClpP mod: -0.2%; TCR act: 0.5%; Nrf2 inh: 23.1µM*

How did Cc1cc(C(C#N)c2ccc(Cl)cc2)c(Cl)cc1NC(=O)c1cc(I)cc(I)c1O (stereo not given) do in these assays?
Nrf2 ARE act: -0.8%; A549 tox: inconclusive; ClpP mod: -0.5%; TCR act: 2.5%; Nrf2 inh: inconclusive

What do the screens show for `Cc1c(P(=S)(c2ccccc2)c2ccccc2)[n+]2ccccc2n1CCCc1ccccc1`?
A549 tox: -14.1%; Nrf2 inh: inconclusive

How did COc1ccc(C(=O)C2CCCN(Cc3cnc(C)s3)C2)c(OC)c1 (stereo not given) do in these assays?
Nrf2 ARE act: 5.1%; miR-21 reporter: -2.0%; A549 tox: -7.1%; TCR act: -5.8%; Nrf2 inh: 20.6µM*

What do the screens show for `COc1ccc(C(=O)C2CCCN(Cc3cnc(C)s3)C2)cc1OC` (stereo not given)?
Nrf2 ARE act: -1.1%; miR-21 reporter: -5.6%; A549 tox: -3.4%; TCR act: 4.3%; Nrf2 inh: inconclusive

How did CC(=O)OC1CC(OC2C(O)CC(OC3C(O)CC(OC4CCC5(C)C(CCC6C5CCC5(C)C(C7=CC(=O)OC7)CCC65O)C4)OC3C)OC2C)OC(C)C1OC1OC(CO)C(O)C(O)C1O (stereo not given) do in these assays?
Nrf2 ARE act: -0.7%; A549 tox: inconclusive; ClpP mod: -2.4%; TCR act: 1.3%; Nrf2 inh: 0.0366µM*

Some of these compounds in order of molar mass, largest number first:
What do the screens show for `CCOC(=O)CC1c2ccccc2-n2nncc2CN1Cc1ccc(OC)cc1` (stereo not given)?
Nrf2 ARE act: 0.2%; A549 tox: -10.9%; ClpP mod: -0.2%; TCR act: 0.5%; Nrf2 inh: 23.1µM*

How did COc1ccc(C(=O)C2CCCN(Cc3cnc(C)s3)C2)c(OC)c1 (stereo not given) do in these assays?
Nrf2 ARE act: 5.1%; miR-21 reporter: -2.0%; A549 tox: -7.1%; TCR act: -5.8%; Nrf2 inh: 20.6µM*

Results for CCOC(=O)CC1c2ccccc2-n2nncc2CN1C (stereo not given) ?
Nrf2 ARE act: -0.4%; A549 tox: 6.6%; ClpP mod: -2.5%; TCR act: 4.7%; Nrf2 inh: 0.5%
